The target of the assay is herpes protease (HSV-1 UL26 product, Pra) (Human herpesvirus 1, UniProt P10210). The class given is biochemical.

Chains of the proteins cited; added tags and fusions are not shown. Lines headed by an entry give the natural chain unless they say otherwise; changes in a name come on top.
UniProt P10210: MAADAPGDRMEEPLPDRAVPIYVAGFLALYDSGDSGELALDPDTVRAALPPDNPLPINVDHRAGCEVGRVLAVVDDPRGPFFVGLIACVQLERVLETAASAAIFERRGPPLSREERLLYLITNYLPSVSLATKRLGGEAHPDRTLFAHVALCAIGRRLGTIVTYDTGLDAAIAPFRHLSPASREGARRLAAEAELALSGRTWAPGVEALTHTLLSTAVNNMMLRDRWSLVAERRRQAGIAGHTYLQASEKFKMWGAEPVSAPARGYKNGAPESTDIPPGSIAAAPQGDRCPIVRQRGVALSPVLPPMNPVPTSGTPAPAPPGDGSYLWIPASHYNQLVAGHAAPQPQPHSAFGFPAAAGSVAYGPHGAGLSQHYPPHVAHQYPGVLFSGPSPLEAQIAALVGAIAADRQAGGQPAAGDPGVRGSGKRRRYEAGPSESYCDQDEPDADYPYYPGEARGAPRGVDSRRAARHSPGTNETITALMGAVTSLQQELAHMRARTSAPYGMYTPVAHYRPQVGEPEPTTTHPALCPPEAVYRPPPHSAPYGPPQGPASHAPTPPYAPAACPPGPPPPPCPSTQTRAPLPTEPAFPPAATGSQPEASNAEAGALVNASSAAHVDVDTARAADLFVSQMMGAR

On to `O=S(=O)(F)Cc1ccccc1` [Phenylmethansulfonyl fluoride], for which the “inhibition of the protease” value was “at least 50%”.
